Test: Trastuzumab attachment: protein per lipid and trastuzumab molecules per liposome (BCA + Stewart assays combined)
Assay type: physicochemical
Settings: Trastuzumab line = immunoliposomes minus control liposomes (attached trastuzumab)
Source text: With the knowledge of the molecular weight of trastuzumab and DPPC, the number of trastuzumab molecules per vesicle can be calculated after quantifying the protein and lipids amounts using BCA assay and Stewart assay.
In order to confirm the attachment of the mAb Trastuzumab to liposomes, the BCA assay and Stewart assay may be used as described herein. The BCA assay may be used to determine the concentration of protein in the sample (μg/ml), while the Stewart assay may be used to determine DPPC concentration in the sample (mg/ml). Combining the two methods, a w/w ratio of protein to lipids in (μg/mg) may be obtained, thereby excluding the effect of different concentrations alterations. The results for three batches of liposomes may be averaged to confirm attachment consistency and standard deviation.
Also, the number of liposomes attached per each liposomes vesicle may be calculated. As described herein, the control liposomes are NH2 liposomes that are mixed with the antibody but without performing the attachment reaction. The control liposomes may be purified using the same purification column of that of immunoliposomes, to confirm that any increase in the protein level is only due to attached trastuzumab. Any difference in protein level can be considered due to the presence of attached Trastuzumab.
Assuming a liposome size of 100 nm in radius and an average area for a single phospholipid molecule of about 75 A°, the average number of lipid molecules constructing a single liposomes vesicle may be 80,000. […] This is considered to fall within the optimal range that may induce sufficient cell cytotoxicity. In some embodiments, each immunoliposome may have about 1, 2, 4, 6, 7, 8, 10, 11, 12, 14, 18, 24, 30, 50, or more than 50 trastuzumab molecules conjugated to the liposome vesicle.

Trastuzumab: humanized IgG(1) kappa monoclonal antibody (145.5 kDa) with high affinity towards the HER2 receptor
protein level per lipids (batch 1): 17.8029 μg protein/mg lipids
protein level per lipids (batch 2): 20.3999 μg protein/mg lipids
protein level per lipids (batch 3): 24.8468 μg protein/mg lipids

From patent publication US12661318B2, “Systems and methods for targeted breast cancer therapies” (American University of Sharjah, priority 2017, dated 2026)
